Source: PubChem BioAssay (National Center for Advancing Translational Sciences (NCATS))
EPAC2 agonist: qHTS for Agonist of cAMP-regulated guanine nucleotide exchange factor 4 (EPAC2): primary screen. Rap guanine nucleotide exchange factor 4 (Homo sapiens), Q8WZA2. EPAC2 activation, biochemical qHTS; response scale: 100% = 6.5 mM cAMP response. Potency, µM (doses to about 154 µM), hits mostly activators. actives 0.079% (n = 360,000). AID 720711, 2013; also: nearly all actives have a fitted effect of over 50% in size
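Readout is BODIPY fluorescence (480 nm excitation, 540 nm emission), which falls as labeled GDP is exchanged off Rap1B. EPAC2 at 100 nM acted on 250 nM RAP1B-BODIPY-GDP with 50 uM GDP present.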
EPAC2 antagonist: qHTS for Antagonist of cAMP-regulated guanine nucleotide exchange factor 2 (EPAC2): primary screen | Rap guanine nucleotide exchange factor 4 (Homo sapiens), Q8WZA2 | EPAC2 GEF exchange of Rap1B-BODIPY-GDP, fluorescence | Potency, µM (doses to about 114 µM), actives largely listed as inhibitors | actives 0.18% (n = 360,000) | AID 720708, 2013; also: nearly all actives have a fitted effect of over 45% in size
Rango-impB inh: qHTS Assay for Inhibitors of Rango (Ran-regulated importin-beta cargo) - Importin beta complex formation. Importin subunit beta-1 (Homo sapiens), Q14974. Rango CFP/YFP FRET sensor + importin beta, 45 min. Potency, µM (doses to about 92.2 µM). actives 0.031% (n = 340,000); calls by dose curve; also: nearly all actives have a fitted effect of over 15% in size
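FRET biosensor (snurportin 1 IBB flanked by EYFP and cerulean), 50 nM, with compound 5 min, then 0.125 microM importin beta in PBS, 1 mM DTT, 0.02% Tween-20, 0.1% BSA. CFP/YFP ratio read after 45 min at room temperature; pre-read flags interference.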
EPAC1 ag: qHTS for Agonist of cAMP-regulated guanine nucleotide exchange factor 3 (EPAC1): primary screen | Potency, µM (top dose mostly 154 µM), actives largely listed as activators | actives 0.073% (n = 360,000) | EPAC1 agonist qHTS, biochemical assay; response scale: 100% = response to 6.5 mM cAMP | AID 720707, 2013; also: nearly all actives have a fitted effect of over 60% in size
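Fluorescent GDP-exchange assay: 100 nM EPAC1 with 250 nM Rap1B preloaded with BODIPY-GDP and 50 uM GDP; compounds tested as concentration series, 5 min at room temperature, then read every 5 min for 30 min (ex 480/em 540 nm); normalized to 6.5 mM cAMP.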
EPAC1 antag: qHTS for Antagonist of cAMP-regulated guanine nucleotide exchange factor 3 (EPAC1): primary screen. AID 720709, 2013. Rap guanine nucleotide exchange factor 3 (Homo sapiens), O95398. EPAC1 GEF assay, Rap1b-BODIPY-GDP exchange fluorescence. Potency, µM (top dose mostly 115 µM), hits mostly inhibitors. actives 0.14% (n = 360,000); also: nearly all actives have a fitted effect of over 50% in size
Rango release inh: qHTS Assay for Inhibitors of RanGTP induced Rango (Ran-regulated importin-beta cargo) - Importin beta complex dissociation; Snurportin-1 (Homo sapiens) + GTP-binding nuclear protein Ran (Homo sapiens) + Importin …; Biochemical FRET Rango-importin beta, RanGTP-induced dissociation; Potency, µM (highest dose often 46.1 µM); actives 0.071% (n = 340,000); AID 540253, 2011; calls by dose curve; also: nearly all actives have a fitted effect of over 45% in size
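Recombinant Rango FRET biosensor (EYFP–snurportin 1 IBB–cerulean CFP10) at 0.1 uM premixed with 0.25 uM importin beta in PBS, 1 mM DTT, 0.02% Tween-20, 0.1% BSA. Compound added 5 min; RanGTP-RCC1 (0.6 uM Ran, 2 mM GTP, 0.2 uM RCC1) then triggers release, read at 45 min.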
Of the large screens only hits and unclear results are named; the others gave an inactive call; [ ] = another dose, or the depositor's remark. Sampled rows, rich in hits. Any-hit rate of the full collection: about 0.48%. Unless noted, calls follow the shape of the dose curve; as a rule, active = well fitted curve in the direction sought with a large enough effect; inconclusive = small, poorly fitted or top-dose-only effect, or another doubt; inactive = no such curve, though single readings can be large; an effect the other way counts as inactive or inconclusive.

Chains of the proteins cited; added tags and fusions are not shown.
Importin subunit beta-1 (Homo sapiens), Q14974, UniProt Q14974, whole entry, looked up: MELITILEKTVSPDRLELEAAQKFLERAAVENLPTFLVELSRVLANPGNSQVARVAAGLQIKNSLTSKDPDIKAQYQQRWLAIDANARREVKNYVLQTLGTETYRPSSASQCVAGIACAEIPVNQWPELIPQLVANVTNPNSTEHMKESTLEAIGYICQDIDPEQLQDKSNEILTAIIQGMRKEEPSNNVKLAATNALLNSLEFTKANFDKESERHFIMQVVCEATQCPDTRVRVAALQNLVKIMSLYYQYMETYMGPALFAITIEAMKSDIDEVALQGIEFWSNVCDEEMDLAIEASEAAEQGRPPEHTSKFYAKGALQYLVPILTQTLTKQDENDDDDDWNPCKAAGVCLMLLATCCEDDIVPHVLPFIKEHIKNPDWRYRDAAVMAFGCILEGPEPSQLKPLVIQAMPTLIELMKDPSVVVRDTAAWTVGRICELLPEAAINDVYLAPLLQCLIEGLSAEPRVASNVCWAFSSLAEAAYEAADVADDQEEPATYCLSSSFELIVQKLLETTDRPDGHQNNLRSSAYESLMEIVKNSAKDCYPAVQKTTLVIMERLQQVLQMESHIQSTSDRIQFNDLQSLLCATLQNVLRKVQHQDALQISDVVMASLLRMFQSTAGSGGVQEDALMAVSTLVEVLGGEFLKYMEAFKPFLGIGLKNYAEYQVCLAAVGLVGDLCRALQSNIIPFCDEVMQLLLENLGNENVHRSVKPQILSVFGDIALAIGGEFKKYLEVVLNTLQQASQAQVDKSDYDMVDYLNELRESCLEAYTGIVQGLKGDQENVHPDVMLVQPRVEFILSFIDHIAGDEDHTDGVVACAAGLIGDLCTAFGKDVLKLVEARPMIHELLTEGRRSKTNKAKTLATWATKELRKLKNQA

CCn1nc([N+](=O)[O-])c(C(C#N)c2nc3cc(C(F)(F)F)ccc3s2)c(Cl)c1=O (stereo unspecified)	EPAC1 antag inconclusive
CCCn1nc([N+](=O)[O-])c(C(C#N)c2nc3ccccc3o2)c(Cl)c1=O (stereo unspecified)	EPAC2 antagonist 56.2µM
COc1ccc(Cn2c(N)c(C#N)c3nc4ccccc4nc32)cc1OC	Rango-impB inh inconclusive, Rango release inh 11.6µM
OCCN(CCO)c1nc(N2CCCCC2)c2nc(N(CCO)CCO)nc(N3CCCCC3)c2n1	EPAC2 agonist 112µM, Rango-impB inh inconclusive, EPAC1 ag 100µM, Rango release inh inconclusive
O=c1cc(CN2CCN(S(=O)(=O)c3cccc(Cl)c3)CC2)c2ccc(O)cc2o1	Rango-impB inh inconclusive, EPAC1 antag 79.4µM, Rango release inh inconclusive
CN(Cc1ccccc1)C(=O)COC(=O)C1CCN(S(=O)(=O)c2ccc3c(c2)OCCO3)CC1	none
Cc1ccc(C)c(S(=O)(=O)N2CCN(C(=O)CCc3c[nH]c4ccccc34)CC2)c1	none
Cc1ccc(C)c(S(=O)(=O)N2CCN(C(=O)CCCc3c[nH]c4ccccc34)CC2)c1	EPAC1 ag 112µM
CCn1c(/C=C/N(C(C)=O)c2ccccc2)[n+](CC)c2ccc(Cl)cc21	none
CC[n+]1c(/C=C/C=C/N(C(C)=O)c2ccccc2)sc2ccccc21	EPAC2 agonist 100µM, Rango-impB inh inconclusive, EPAC1 ag inconclusive, Rango release inh inconclusive
COC(=O)c1ccccc1COc1cccn2c(N(C)Cc3cccs3)c(C)nc12	none (no result: Rango-impB inh, Rango release inh)
COC(=O)C1=CN(Cc2ccccc2)C=C(C(=O)OC)C1c1ccc(O)c(OC)c1	Rango-impB inh inconclusive
COC(=O)C1=CN(Cc2ccccc2)C=C(C(=O)OC)C1c1ccc(OC)c(OC)c1	EPAC2 antagonist inconclusive, Rango-impB inh inconclusive, Rango release inh 13µM
CCCCC(CC)C(=O)Nc1ccc(Nc2ccccc2)cc1 (stereo unspecified)	EPAC1 ag 63.1µM
CC(C)C(C)NC(=O)COn1nnc2ccc(S(=O)(=O)N3CCOCC3)cc21 (stereo unspecified)	none
N#Cc1nc(COc2ccccc2Cl)oc1NCc1cccnc1	Rango-impB inh inconclusive, Rango release inh 20.6µM
CCOc1ccccc1NC1c2ccccc2C(=O)N1Cc1ccco1 (stereo unspecified)	EPAC2 antagonist 15.8µM
O=C1c2ccccc2C(O)N1Cc1ccco1 (stereo unspecified)	none
O=C(NCC(O)c1nc2ccccc2[nH]1)c1cc([N+](=O)[O-])ccc1F (stereo unspecified)	none (no result: Rango-impB inh, Rango release inh)
CC(NC(=O)OC(C)(C)C)C(=O)Oc1ccc2ccc(=O)oc2c1 (stereo unspecified)	Rango-impB inh inconclusive, Rango release inh inconclusive
CC(C)(C)OC(=O)NCCC(=O)Oc1ccc2ccc(=O)oc2c1	Rango-impB inh inconclusive, Rango release inh 9.2µM
CCCNC(=O)C1(C)CCCN(CC(=O)c2ccc3c(c2)OCCO3)C1 (stereo unspecified)	none (no result: Rango-impB inh, Rango release inh)
CC(O)CN(CC(C)O)c1ccc2c(c1)Cc1cc([N+](=O)[O-])ccc1-2 (stereo unspecified)	Rango-impB inh 18.4µM, Rango release inh inconclusive
CC(CN1CC(=O)NC(=O)C1)N1CC(=O)NC(=O)C1 (stereo unspecified)	none (no result: Rango-impB inh, Rango release inh)
CCOC(=O)[C@]12CCC=C1N(Cc1ccccc1)C(=O)[C@H](CC(=O)N1CCOCC1)C2	none (no result: Rango-impB inh, Rango release inh)
COCC(C)NCc1ccccc1C (stereo unspecified)	Rango-impB inh 18.4µM
COCC(C)NCc1cccc(OC)c1OC (stereo unspecified)	none
COc1ccc(-c2csc3ncn(-c4ccc(C)cc4)c(=O)c23)cc1OC	EPAC2 antagonist 44.7µM
COc1ccccc1C(=O)NCCNc1nc2cc(C)cc(C)c2cc1C#N	Rango-impB inh inconclusive, Rango release inh 11.6µM
COc1ccc(CCNC(=O)CSc2ccc3nnc(CCNC(=O)c4ccc(C)cc4)n3n2)cc1OC	Rango-impB inh inconclusive, Rango release inh 6.51µM
Cc1ccc(C(=O)NCCc2nnc3ccc(SCC(=O)NCc4ccc(F)cc4)nn23)cc1	none
Cc1cc(/C=C2\SC(=S)N(Cc3ccco3)C2=O)c(C)n1-c1cccnc1	EPAC2 agonist 100µM, Rango-impB inh inconclusive, Rango release inh inconclusive
O=C(NC1CCCC1)C(C1CC1)n1c(-c2ccncc2)nc2ccccc21 (stereo unspecified)	none (no result: Rango-impB inh, Rango release inh)
CCOC(=O)c1cc(C(C)=O)c(=O)n(C)c1N	none
CCOC(=O)c1ccc2cccc(C)n2c1=O	Rango-impB inh inconclusive, Rango release inh 11.6µM[inhibitor]
Cc1[nH]n(-c2ncc(-c3ccccc3)s2)c(=O)c1C(c1ccc(Br)cc1)C(C#N)C#N (stereo unspecified)	EPAC1 antag 15.8µM
O=C(Nc1ccccc1Cl)c1cc(S(=O)(=O)N2CCCCC2)ccc1N1CCOCC1	none
CC(NC(=O)c1cc(S(=O)(=O)N2CCOCC2)ccc1N1CCCC1)c1ccc(Cl)c(Cl)c1 (stereo unspecified)	EPAC1 ag 56.2µM
COc1cc(CN2C[C@@H](CO)O[C@@H](n3cnc4c(NC(C)C)ncnc43)C2)cc(OC)c1OC	none (no result: Rango-impB inh, Rango release inh)
COc1ccc(C(C(=O)c2ccccc2)c2ccccc2)cc1 (stereo unspecified)	EPAC2 antagonist inconclusive (no result: Rango-impB inh, Rango release inh)
CC1=NN(c2ccccc2)C(=O)/C1=C/c1c(O)n(-c2ccc(F)c(Cl)c2)[nH]c1=O	EPAC2 antagonist 89.1µM, EPAC1 antag 50.1µM
CCOc1cc(S(=O)(=O)N(CC)CC)ccc1Cl	EPAC2 antagonist 39.8µM
CCN(CC)S(=O)(=O)c1ccc(Cl)c(OC)c1	none
CC(=O)c1ccc(N2C(=O)C3C(C2=O)C(C(=O)c2ccc(Cl)cc2)N2CCCC32)cc1 (stereo unspecified)	EPAC2 agonist 100µM, Rango-impB inh inconclusive, EPAC1 ag inconclusive, Rango release inh inconclusive
O=C(c1ccc(Cl)cc1)C1C2C(=O)N(c3ccccc3)C(=O)C2C2CCCN21 (stereo unspecified)	none
